We go through one compound from US6545045B1, “Prostaglandin E agonists for treatment of glaucoma” (Alcon Manufacturing, Ltd., priority 1998, dated 2003).

Chains of the proteins cited; added tags and fusions are not shown. Residues count along the entry.
UniProt P43116, whole entry: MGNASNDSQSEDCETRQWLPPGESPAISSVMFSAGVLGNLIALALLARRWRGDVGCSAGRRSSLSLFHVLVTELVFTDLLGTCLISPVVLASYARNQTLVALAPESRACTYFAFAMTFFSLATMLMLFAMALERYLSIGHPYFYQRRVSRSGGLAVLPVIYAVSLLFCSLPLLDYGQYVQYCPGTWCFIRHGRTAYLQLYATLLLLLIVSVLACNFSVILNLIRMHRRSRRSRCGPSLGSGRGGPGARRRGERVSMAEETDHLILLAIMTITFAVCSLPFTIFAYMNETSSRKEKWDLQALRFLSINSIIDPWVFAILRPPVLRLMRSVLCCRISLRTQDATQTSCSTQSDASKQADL
UniProt A0A061ILF4, 1-488: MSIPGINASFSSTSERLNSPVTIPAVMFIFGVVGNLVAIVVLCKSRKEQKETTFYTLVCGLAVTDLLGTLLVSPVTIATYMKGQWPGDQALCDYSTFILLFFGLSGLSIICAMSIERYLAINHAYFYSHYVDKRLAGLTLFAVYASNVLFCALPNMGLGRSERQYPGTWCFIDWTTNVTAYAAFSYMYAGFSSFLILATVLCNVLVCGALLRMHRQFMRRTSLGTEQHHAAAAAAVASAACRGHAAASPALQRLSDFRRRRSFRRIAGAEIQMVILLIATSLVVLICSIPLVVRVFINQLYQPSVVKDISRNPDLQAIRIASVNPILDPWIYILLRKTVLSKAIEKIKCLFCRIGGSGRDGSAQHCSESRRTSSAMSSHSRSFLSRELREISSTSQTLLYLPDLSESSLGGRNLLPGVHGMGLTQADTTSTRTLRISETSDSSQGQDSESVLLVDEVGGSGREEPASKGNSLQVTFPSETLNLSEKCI

The target of assay [1] is EP2 receptors (Homo sapiens, UniProt P43116). In words: cAMP production (radioimmunoassay) via EP2 receptors in immortalized human non-pigmented ciliary epithelial cells. A general note: Cyclic AMP is a second messenger, typically raised through Gs and lowered through Gi signalling.
Assay [2] has as its target EP4 receptors (Cricetulus griseus, UniProt A0A061ILF4). The assay is described as follows: cAMP production (radioimmunoassay) via EP4 receptors in Chinese hamster ovary cells. Particulars: read-out: Potency (EC50, nM) at EP4 Receptors in Chinese Hamster Ovary Cells, stimulated 15-60 min at 23° C.

With `O=C(O)COC/C=C\C[C@@H]1[C@@H](/C=C/[C@@H](O)C2CCCCC2)[C@H](O)C[C@H]1Cl`, the “selectivity between EP2 and EP4 receptors (relative agonist potency)” value in assay [1] (EP2 versus EP4, from EC50 values of Table 1) is on record as “more EP2-selective”. In addition, the half-maximal effective concentration (EC50) (commonly the midpoint of the concentration-response curve) in assay [1] (read-out: Potency (EC50, nM) at EP2 Receptors in Immortalized Human Non-pigmented Ciliary Epithelial Cells, cAMP production, stimulated 15-60 min at 23° C) was 700 nM; in assay [2], > 10000 nM.
